Literature values, collected in patent US20080287669A1, “METHODS AND COMPOSITIONS FOR IDENTIFYING COMPOUNDS USEFUL IN NUCLEIC ACID PURIFICATION” (priority 2007, published 2008).

Details: Table 1, soluble organic solvents

## hexylene glycol
  Dielectric Constant (DC): 23.4
